Experimental data published in patent US20260384424A1, “HETEROCYCLIC COMPOUND” (published 2026).

Sequences of proteins named here, by UniProt entry; tags and fusion partners are left off. Residues count along the entry.
UniProt Q9UM73, 1058-1620 limits assumed: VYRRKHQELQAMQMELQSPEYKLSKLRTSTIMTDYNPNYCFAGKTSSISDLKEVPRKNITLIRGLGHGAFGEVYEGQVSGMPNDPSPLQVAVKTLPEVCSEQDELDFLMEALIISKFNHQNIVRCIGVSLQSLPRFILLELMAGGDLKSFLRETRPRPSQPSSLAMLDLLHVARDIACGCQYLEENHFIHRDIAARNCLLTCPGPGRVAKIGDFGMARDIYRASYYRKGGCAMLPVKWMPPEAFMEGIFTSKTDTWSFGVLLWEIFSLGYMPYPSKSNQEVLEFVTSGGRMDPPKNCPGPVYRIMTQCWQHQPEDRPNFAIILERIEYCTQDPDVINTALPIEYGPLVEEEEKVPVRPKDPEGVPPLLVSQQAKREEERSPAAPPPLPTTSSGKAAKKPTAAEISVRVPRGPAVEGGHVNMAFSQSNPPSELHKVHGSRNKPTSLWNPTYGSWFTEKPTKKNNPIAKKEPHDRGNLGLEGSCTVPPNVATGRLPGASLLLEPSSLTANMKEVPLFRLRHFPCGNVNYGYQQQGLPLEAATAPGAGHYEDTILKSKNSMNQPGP
UniProt Q05397, 376-1052 limits assumed: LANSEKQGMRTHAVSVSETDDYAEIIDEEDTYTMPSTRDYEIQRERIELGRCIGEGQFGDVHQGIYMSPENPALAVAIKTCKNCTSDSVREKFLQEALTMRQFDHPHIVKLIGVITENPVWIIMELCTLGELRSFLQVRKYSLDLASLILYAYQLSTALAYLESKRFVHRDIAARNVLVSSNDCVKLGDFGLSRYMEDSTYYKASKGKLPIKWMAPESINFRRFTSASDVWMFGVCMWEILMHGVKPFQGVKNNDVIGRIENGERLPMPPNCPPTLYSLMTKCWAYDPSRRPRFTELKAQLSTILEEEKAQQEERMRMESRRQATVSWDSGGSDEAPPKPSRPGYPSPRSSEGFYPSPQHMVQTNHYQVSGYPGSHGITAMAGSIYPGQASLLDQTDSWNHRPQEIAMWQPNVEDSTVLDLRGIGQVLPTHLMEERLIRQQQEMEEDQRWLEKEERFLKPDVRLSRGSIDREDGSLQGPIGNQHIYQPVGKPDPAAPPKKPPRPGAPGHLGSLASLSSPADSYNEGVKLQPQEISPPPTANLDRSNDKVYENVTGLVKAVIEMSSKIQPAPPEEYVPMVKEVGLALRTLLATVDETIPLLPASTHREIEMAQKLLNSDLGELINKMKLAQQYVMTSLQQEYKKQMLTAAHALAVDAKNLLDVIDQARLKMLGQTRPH

target: human ALK kinase (Homo sapiens, UniProt Q9UM73); test: ALK kinase inhibitory activity, mobility shift assay (MSA); settings: at 10 nM
Description: The ALK kinase inhibitory activity was measured using a mobility shift assay (MSA) provided by Carna Biosciences, Inc.
The test compound was dissolved in DMSO to prepare a 1 μM solution. The solution was further diluted 25 times with an assay buffer (20 mmol/L HEPES, 0.01% Triton (registered trademark) X-100, 1 mmol/L DTT, pH 7.5) to obtain a test compound solution.
The human ALK kinase was expressed by fusing the cytoplasmic domain (1058 to 1620 amino acids of Accession No. BAG 10812.1) with GST at the N-terminus using the baculovirus expression system. The GST-ALK was purified by glutathione sepharose chromatography. A 4-fold concentration substrate (Srctide, 1000 nmol/L)/ATP (50 μmol/L)/metal solution (Mg, 5 mmol/L) was prepared with kit buffer (20 mmol/L HEPES, 0.01% Triton (registered trademark) X-100, 5 mmol/L DTT, pH 7.5). A 2-fold concentration kinase solution was prepared with assay buffer.
In the same manner as described in Test Example 1, tests and evaluation of inhibitory activity and data analysis were performed.

ALK kinase inhibition rate | Compound
A (A Z 75%) | COC[C@H]1CN[C@H](C)CN1CC(=O)N1CC(C)(C)c2ncc(Cc3cccc(OCCOCCOCCOCCOCCOCCNC(=O)CN4CCC(c5cc(OC(C)C)c(Nc6ncc(Cl)c(Nc7ccccc7S(=O)(=O)C(C)C)n6)cc5C)CC4)c3)cc21
A (A Z 75%) | COC[C@H]1CN[C@H](C)CN1CC(=O)N1CC(C)(C)c2nc(CN(C)CCOCCOCCOCCOCCOCCNC(=O)CN3CCC(c4cc(OC(C)C)c(Nc5ncc(Cl)c(Nc6ccccc6S(=O)(=O)C(C)C)n5)cc4C)CC3)c(Cc3ccc(F)cc3)cc21
A (A Z 75%) | COC[C@H]1CN[C@H](C)CN1CC(=O)N1CC(C)(C)c2nc(CN(C)CCOCCOCCNC(=O)CN3CCC(c4cc(OC(C)C)c(Nc5ncc(Cl)c(Nc6ccccc6S(=O)(=O)C(C)C)n5)cc4C)CC3)c(Cc3ccc(F)cc3)cc21
A (A Z 75%) | 2-(4-(4-((5-Chloro-4-((2-(isopropylsulfonyl)phenyl)amino) pyrimidin-2-yl)amino)-5-isopropoxy-2-methylphenyl)piperidin-1-yl)-N-(14-(2-((1-(2-((2R,5R)-2-(methoxymethyl)-5-methylpiperazin-1-yl)acetyl)-3,3-dimethyl-2,3-dihydro-1H-pyrrolo[3,2-b]pyridin-6-yl)methyl)phenoxy)-3,6,9, 12-tetraoxatetradecyl)acetamide
B (75%>B≥50%) | Cc1cc(Nc2ncc(Cl)c(Nc3ccccc3S(=O)(=O)C(C)C)n2)c(OC(C)C)cc1C1CCN(CC(=O)NCCOCCOCCOCCOCCOCCN(C)C[C@H]2CN[C@H](C)CN2CC(=O)N2CC(C)(C)c3ncc(Cc4ccc(F)cc4)cc32)CC1
B (75%>B≥50%) | Cc1cc(Nc2ncc(Cl)c(Nc3ccccc3S(=O)(=O)C(C)C)n2)c(OC(C)C)cc1C1CCN(CC(=O)NCCOCCN(C)C[C@H]2CN[C@H](C)CN2CC(=O)N2CC(C)(C)c3ncc(Cc4ccc(F)cc4)cc32)CC1

target: human FAK kinase (Homo sapiens, UniProt Q05397); test: FAK kinase inhibitory activity, mobility shift assay (MSA); settings: at 30 nM; reaction time 5 hours
Description: The FAK kinase inhibitory activity was measured using a mobility shift assay (MSA) provided by Carna Biosciences, Inc.
The test compound was dissolved in DMSO to prepare a 3 μM solution. The solution was further diluted 25 times with an assay buffer (20 mmol/L HEPES, 0.01% Triton (registered trademark) X-100, 1 mmol/L DTT, pH 7.5) to obtain a test compound solution.
Incomplete human FAK kinase was expressed by fusing 376 to 1052 amino acids of Accession No. NP_722560.1 with GST at the N-terminus using the baculovirus expression system. The GST-FAK was purified by glutathione sepharose chromatography. A 4-fold concentration substrate (Blk/Lyntide, 1000 nmol/L)/ATP (25 μmol/L)/metal solution (Mg, 5 mmol/L) was prepared with kit buffer (20 mmol/L HEPES, 0.01% Triton (registered trademark) X-100, 5 mmol/L DTT, pH 7.5). A 2-fold concentration kinase solution was prepared with assay buffer.
In the same manner as described in Test Example 1, tests and evaluation of inhibitory activity and data analysis were performed. The reaction time was set to 5 hours.

FAK kinase inhibition rate | Compound
B (75%>B≥50%) | COC[C@H]1CN[C@H](C)CN1CC(=O)N1CC(C)(C)c2nc(CN3CCN(CCOCCOCC(=O)Nc4ccc(Nc5ncc(C(F)(F)F)c(NCc6cccc(S(C)(=O)=O)c6)n5)cc4)CC3)c(Cc3ccc(F)cc3)cc21
A (A≥75%) | COC[C@H]1CN[C@H](C)CN1CC(=O)N1CC(C)(C)c2nc(CN3CCN(CCOCC(=O)Nc4ccc(Nc5ncc(C(F)(F)F)c(NCc6cccc(S(C)(=O)=O)c6)n5)cc4)CC3)c(Cc3ccc(F)cc3)cc21
B (75%>B≥50%) | COC[C@H]1CN[C@H](C)CN1CC(=O)N1CC(C)(C)c2ncc(Cc3ccccc3OCCN3CCN(CCOCCOCCOCC(=O)Nc4ccc(Nc5ncc(C(F)(F)F)c(NCc6cccc(S(C)(=O)=O)c6)n5)cc4)CC3)cc21
A (A≥75%) | 2-(2-((((2R,5R)-1-(2-(6-(4-Fluorobenzyl)-3,3-dimethyl-2,3-dihydro-1H-pyrrolo[3,2-b]pyridin-1-yl)-2-oxoethyl)-5-methylpiperazin-2-yl)methyl)(methyl)amino)ethoxy)-N-(4-((4-((3-(methylsulfonyl)benzyl)amino)-5-(trifluoromethyl)pyrimidin-2-yl)amino)phenyl)acetamide
A (A≥75%) | C[C@@H]1CN(CC(=O)N2CC(C)(C)c3ncc(Cc4ccc(F)cc4)cc32)[C@@H](CN(C)CCOCCOCCOCC(=O)Nc2ccc(Nc3ncc(C(F)(F)F)c(NCc4cccc(S(C)(=O)=O)c4)n3)cc2)CN1
B (75%>B≥50%) | COC[C@H]1CN[C@H](C)CN1CC(=O)N1CC(C)(C)c2ncc(Cc3cccc(OCCN4CCN(CCOCCOCCOCCOCC(=O)Nc5ccc(Nc6ncc(C(F)(F)F)c(NCc7cccc(S(C)(=O)=O)c7)n6)cc5)CC4)c3)cc21
